Blank lines part the entries; values can stand above or below the compound they belong to.
Legend:
[1] = target: human mGlu2 receptor (Homo sapiens, UniProt Q14416); experiment: [35S]GTPγS binding assay (mGluR2 negative allosteric modulation, glutamate ~EC80 60 μM); details: for GTPγS-hmGluR2 anGT Emax: maximal % inhibition relative to the control glutamate response (EC80 glutamate); for GTPγS-hmGluR2 anGT pIC50: membranes from CHO cells transfected with human mGlu2 receptor, glutamate ~EC80 (60 μM), pIC50 = −log IC50 (M)
Source text: The compounds provided in the present invention are negative allosteric modulators of mGluR2. These compounds appear to inhibit glutamate responses by binding to an allosteric site other than the glutamate binding site. The response of mGluR2 to a concentration of glutamate is decreased when compounds of Formula (I) are present. Compounds of Formula (I) are expected to have their effect substantially at mGluR2 by virtue of their ability to reduce the function of the receptor. The effects of negative allosteric modulators tested at mGluR2 using the [^35S]GTPγS binding assay method described below and which is suitable for the identification of such compounds, and more particularly the compounds according to Formula (I), are shown in Table 7.
1) [^35S]GTPγS Binding Assay
The [^35S]GTPγS binding assay is a functional membrane-based assay used to study G-protein coupled receptor (GPCR) function whereby incorporation of a non-hydrolysable form of GTP, [^35S]GTPγS (guanosine 5′-triphosphate, labelled with gamma-emitting ^35S), is measured. The G-protein a subunit catalyzes the exchange of guanosine 5′-diphosphate (GDP) by guanosine triphosphate (GTP) and on activation of the GPCR by an agonist, [^35S]GTPγS, becomes incorporated and cannot be cleaved to continue the exchange cycle (Harper (1998) Current Protocols in Pharmacology 2.6.1-10, John Wiley & Sons, Inc.). […] Here we describe the use of the [^35S]GTPγS binding assay using membranes from cells transfected with the human mGlu2 receptor and adapted from Schaffhauser et al. (Molecular Pharmacology, 2003, […]) for the detection of the negative allosteric modulation (NAM) properties of the compounds of this invention.
CHO-cells were cultured to pre-confluence and stimulated with 5 mM butyrate for 24 h. Cells were then collected by scraping in PBS and cell suspension was centrifuged (10 min at 4000 RPM in benchtop centrifuge). Supernatant was discarded and pellet gently resuspended in 50 mM Tris-HCl, pH 7.4 by mixing with an Ultra Turrax homogenizer. The suspension was centrifuged at 12,400 RPM (Sorvall F14S-6x250Y) for 10 minutes and the supernatant discarded. The pellet was homogenized in 5 mM Tris-HCl, pH 7.4 using an Ultra Turrax homogenizer and centrifuged again (13,000 RPM, 20 min, 4° C.). The final pellet was resuspended in 50 mM Tris-HCl, pH 7.4 and stored at −80° C. in appropriate aliquots before use. Protein concentration was determined by the Bradford method (Bio-Rad, USA) with bovine serum albumin as standard.
[^35S]GTPγS Binding Assay
Measurement of mGluR2 negative allosteric modulatory activity of test compounds was performed as follows. Test compounds and glutamate were diluted in assay buffer containing 10 mM HEPES acid, 10 mM HEPES salt, pH 7.4, 100 mM NaCl, 3 mM MgCl2 and 10 mM GDP. Human mGlu2 receptor-containing membranes were thawed on ice and diluted in assay buffer supplemented with 18 μg/ml saponin. Membranes were pre-incubated with compound together with a predefined (˜EC80) concentration of glutamate (60 μM) for 30 min at 30° C. After addition of [^35S]GTPγS (f.c. 0.1 nM), assay mixtures were shaken briefly and further incubated to allow [^35S]GTPγS incorporation on activation (30 minutes, 30° C.). Final assay mixtures contained 7 μg of membrane protein in 10 mM HEPES acid, 10 mM HEPES salt, pH 7.4, 100 mM NaCl, 3 mM MgCl2, 10 μM GDP and 10 μg/ml saponin. Total reaction volume was 200 μl. Reactions were terminated by rapid filtration through Unifilter-96 GF/B plates (Perkin Elmer, Massachusetts, USA) using a 96-well filtermate universal harvester. Filters were washed 6 times with ice-cold 10 mM NaH2PO4/10 mM Na2HPO4, pH 7.4. Filters were then air-dried, and 30 μl of liquid scintillation cocktail (Microscint-O) was added to each well. Membrane-bound radioactivity was counted in a Topcount.
The concentration-response curves of representative compounds of the present invention were generated using the Lexis software interface (developed at J&J). […]

Amino acid sequences for entries named in this document (tags omitted). Residues count along the entry.
UniProt Q14416, 19-872 limits assumed: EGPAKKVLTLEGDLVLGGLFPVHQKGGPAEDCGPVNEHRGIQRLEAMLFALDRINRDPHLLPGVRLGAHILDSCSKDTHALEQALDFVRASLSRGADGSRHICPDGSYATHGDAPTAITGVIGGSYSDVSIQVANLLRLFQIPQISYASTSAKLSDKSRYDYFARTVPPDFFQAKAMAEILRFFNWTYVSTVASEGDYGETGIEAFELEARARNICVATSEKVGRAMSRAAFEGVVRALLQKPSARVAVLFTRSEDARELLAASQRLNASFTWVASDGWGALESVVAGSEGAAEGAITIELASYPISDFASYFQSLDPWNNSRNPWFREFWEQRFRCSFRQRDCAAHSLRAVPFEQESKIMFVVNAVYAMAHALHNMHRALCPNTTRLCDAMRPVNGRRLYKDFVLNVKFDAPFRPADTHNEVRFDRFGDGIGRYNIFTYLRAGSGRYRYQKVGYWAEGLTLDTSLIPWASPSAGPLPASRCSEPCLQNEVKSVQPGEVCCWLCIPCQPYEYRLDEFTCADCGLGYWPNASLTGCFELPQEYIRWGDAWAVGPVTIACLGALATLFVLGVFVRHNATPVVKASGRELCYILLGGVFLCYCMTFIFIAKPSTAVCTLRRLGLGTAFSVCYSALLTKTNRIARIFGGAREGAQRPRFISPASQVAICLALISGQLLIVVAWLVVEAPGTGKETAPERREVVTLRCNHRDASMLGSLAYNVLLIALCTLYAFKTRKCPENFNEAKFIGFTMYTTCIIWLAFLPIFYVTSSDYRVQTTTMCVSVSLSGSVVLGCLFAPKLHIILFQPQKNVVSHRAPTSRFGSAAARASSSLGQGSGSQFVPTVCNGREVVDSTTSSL

[2] = test system: rats; experiment: Reversal of the effect of the mGluR2 PAM JNJ-42153605-induced inhibition of scopolamine-induced hyperlocomotion (SCOP JNJ-42153605); details: PO (oral route), reversal criterion total distance >1500 cm
Experimental: 2) Reversal of the Effect of the mGluR2 PAM JNJ-42153605-Induced Inhibition of Scopolamine-Induced Hyperlocomotion Apparatus
Motor activity was measured in microprocessor-based motor activity arenas (closed gray PVC cylinders with a height of 39 cm and a diameter of 31 cm). Each arena was placed on an infrared LED (8×8 LEDs) lit box (white PVC squared box; 40×40 cm^2; height 12.5 cm. An infrared-sensitive tube camera and a white light source were mounted to the ceiling above the observation chamber to track the animal. The total distance traveled (cm) was recorded and analyzed using the Noldus Ethovision XT Video Tracking System (Version 7.0.418; Noldus, Wageningen, The Netherlands). The intensity of the light within the activity cages (measured in the centre at the level of the floor) ranged between 4 and 8 LUX.
The rats were pretreated with test compound or vehicle at 60 min before the start of the activity recordings and placed into individual cages. The rats were challenged with JNJ-42153605 (3-(cyclopropylmethyl)-7-(4-phenylpiperidin-1-yl)-8-(trifluoromethyl)[1,2,4]triazolo[4,3-a]pyridine; WO2010/130424; Cid et al. J. Med. Chem. 2012, 55, 8770-8789) (20 mg/kg, i.v.) 30 min before the start of the activity recording combined with scopolamine (0.16 mg/kg, i.v.) just before the start of the activity measurements. Immediately after the injection of scopolamine, the rats were placed into the activity monitors and total distance travelled over the first 30 min was measured.
Solvent-Pretreated Control Rats.
Animals receiving the combination of JNJ-42153605 and scopolamine (n=433) almost always travelled a distance of less than 1500 cm (<1500 cm) (only 2.5% of the control rats travelled a distance of more than 1500 cm (>1500 cm)). On the other hand, animals challenged with scopolamine alone (n=215) always travelled a total distance of more than 1500 cm (>1500 cm) and almost always (in 95.8% of the rats) a distance of more than 4400 cm (>4400 cm). […] For reversal of the inhibitory effect of JNJ-42153605 on the scopolamine-induced hyperlocomotion, the following all-or-none criteria were adopted: (1) reversal: total distance >1500 cm.

[3] = test system: Male Wiga Wistar rats; experiment: Reversal of LY-404039-induced decrease of palpebral opening in apomorphine-challenged rats (APO LY-404039); assay type: in vivo, rat; details: PO (oral route), tested form: HCl;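 also: Reversal defined as cumulative palpebral opening score above 26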
Experimental: B) In Vivo Pharmacology 1) Reversal of LY-404039-Induced Decrease of Palpebral Opening in Apomorphine-Challenged Rats.
Male Wiga Wistar rats (Crl:WI; Charles River Germany; 220±40 g) were housed under standard laboratory conditions (21±2° C.; 50-65% relative humidity; light-dark cycle set at 12 h; lights on at 6.00 h) and fasted overnight prior to the start of the experiments (tap water remained available ad libitum). During the test period, they were housed in individual cages. Palpebral opening was scored every 5 min over the first hour after injection of apomorphine (1.0 mg/kg, i.v.) in animals either pretreated or not pretreated with LY-404039 (2.5 mg/kg, s.c.) at 1 h prior to the apomorphine injection. The animals were also pretreated with test compound or solvent at a predefined interval before apomorphine challenge. The score system was: (5) exophthalmos, (4) wide open, (3) open for three-quarters, (2) half open, (1) open for one-quarter, (0) closed. The scores for palpebral opening were cumulated over the 60-min observation period. A cumulative palpebral opening score >26 was selected for drug-induced reversal of the LY-404039-induced decrease of palpebral opening (occurrence in 3.2% of control animals pretreated with LY-404039 (n=154) versus in 99.5% of control rats not pretreated with LY-404039 (n=6335)). […]

Compound: C[C@H]1CN(c2ccc(C(F)(F)F)cc2)C(=O)c2c(NC(=O)c3ccc[n+]([O-])c3)cnn21
- GTPγS-hmGluR2 anGT pIC50 [1]: 7.48
- ED50 SCOP JNJ-42153605 [2]: >0.63 mg/kg

Compound: COCC1CN(c2ccc(C(F)(F)F)cc2)C(=O)c2c(NC(=O)c3ccccc3F)cnn21 (stereo not drawn)
- GTPγS-hmGluR2 anGT pIC50 [1]: 7.52

Compound: C[C@H]1CN(c2ccc(Cl)c(Cl)c2)C(=O)c2c(NC(=O)c3cccnc3)cnn21
- ED50 APO LY-404039 [3]: >0.63 mg/kg
- ED50 SCOP JNJ-42153605 ([2]; tested form: HCl): >0.63 mg/kg

Compound: COCC1CN(c2ccc(C(F)(F)F)cc2)C(=O)c2c(NC(=O)c3ccc(N)nc3)cnn21 (stereo not drawn)
- GTPγS-hmGluR2 anGT Emax [1]: 110%
- GTPγS-hmGluR2 anGT pIC50 [1]: 7.57

Compound: Cc1nccc(C(=O)Nc2cnn3c2C(=O)N(c2ccc(C(F)(F)F)cc2)C[C@@H]3C)c1C
- GTPγS-hmGluR2 anGT pIC50 ([1]; tested form: HCl): 7.03

Further lines, with some results ahead:

- GTPγS-hmGluR2 anGT Emax [1]: 110%
- GTPγS-hmGluR2 anGT pIC50 [1]: 8.76
Compound: C[C@H]1CN(c2ccc(C(F)(F)F)c(Cl)c2)C(=O)c2c(NC(=O)c3ccccn3)cnn21
- ED50 SCOP JNJ-42153605 [2]: >0.63 mg/kg

- GTPγS-hmGluR2 anGT pIC50 ([1]; tested form: TFA): 9.15
Compound: Cc1cnc(N)c(C(=O)Nc2cnn3c2C(=O)N(c2ccc(C(F)(F)F)c(Cl)c2)C[C@@H]3C)c1

- GTPγS-hmGluR2 anGT pIC50 [1]: 8.63
Compound: C[C@H]1CN(c2ccc(C(F)(F)F)c(Cl)c2)C(=O)c2c(NC(=O)c3cncc(F)c3)cnn21
- ED50 SCOP JNJ-42153605 [2]: >0.63 mg/kg

- GTPγS-hmGluR2 anGT pIC50 [1]: 7.81
Compound: C[C@H]1CN(c2ccc(C(F)(F)F)cc2)C(=O)c2c(NC(=O)c3cnc(N)nc3)cnn21
- ED50 SCOP JNJ-42153605 [2]: >2.5 mg/kg

- GTPγS-hmGluR2 anGT Emax [1]: 111%
- GTPγS-hmGluR2 anGT pIC50 [1]: 8.38
Compound: COCC1CN(c2ccc(C(F)(F)F)c(Cl)c2)C(=O)c2c(NC(=O)c3ccc(N)nc3)cnn21 (stereo not drawn)

Source: patent publication US10519162B2, “6,7-dihydropyrazolo[1,5-α]pyrazin-4(5H)-one compounds and their use as negative allosteric modulators of mGluR2 receptors” (Janssen Pharmaceutica NV, priority 2014, dated 2019)
